Data as given in patent US10513520B2, “Sulfamide and sulfamate inhibitors of hHint1” (Regents of the University of Minnesota, priority 2016, dated 2019).

Assay: Solubility (aqueous buffers, water, DMSO)
Conditions: for soluble in (solvent): additional compounds 1a-1f

Row | SMILES | soluble in (solvent) | water solubility (additional compounds 2b, 2c)
1 | Nc1nc2c(ncn2[C@@H]2O[C@H](COC(=O)NCc3ccccc3)[C@@H](O)[C@H]2O)c(=O)[nH]1 | insoluble | –
2 | CCN(CC)C(=O)OC[C@H]1O[C@@H](n2cnc3c(=O)[nH]c(N)nc32)[C@H](O)[C@@H]1O | DMSO | –
3 | Nc1nc2c(ncn2[C@@H]2O[C@H](COC(=O)NCCc3c[nH]c4ccccc34)[C@@H](O)[C@H]2O)c(=O)[nH]1 [Compound 3, guanosine-5′-tryptamine carbamate] | DMSO | –
4 | Nc1nc2c(ncn2[C@@H]2O[C@H](COC(=O)NCCc3cnc[nH]3)[C@@H](O)[C@H]2O)c(=O)[nH]1 | DMSO | –
5 | Nc1nc2c([C@@H]3O[C@H](COS(=O)(=O)NC(=O)CCc4c[nH]c5ccccc45)[C@@H](O)[C@H]3O)scc2c(=O)[nH]1 | – | highly water soluble
